The record followed here is US7488745B2, “Compounds for the treatment of inflammatory disorders” (Schering Corporation, priority 2004, dated 2009).

Protein sequences, listed by entry. Tags and fused reporters are not part of them. Residues count along the entry.
UniProt P78536, 215-477 S266A/N452Q limits assumed: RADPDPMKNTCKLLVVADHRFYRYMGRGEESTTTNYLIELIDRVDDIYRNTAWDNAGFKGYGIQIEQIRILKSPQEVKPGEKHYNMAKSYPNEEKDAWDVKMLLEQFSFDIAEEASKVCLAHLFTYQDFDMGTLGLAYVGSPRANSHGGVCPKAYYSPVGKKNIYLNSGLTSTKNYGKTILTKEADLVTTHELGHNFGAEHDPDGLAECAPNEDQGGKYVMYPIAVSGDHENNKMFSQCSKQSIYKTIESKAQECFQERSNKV

This experiment deals with purified catalytic domain of recombinant human TACE (rhTACEc) (Homo sapiens, UniProt P78536, N452Q/S266A). Kind of experiment: TACE kinetic assay: cleavage of internally quenched peptide substrate SPDL-3 (fluorescence). The settings on record: Ki (nM), TABLE 6000; Ki printed as class symbols A-D.

Turning to `COc1ccc2c(c1)C(=O)N(C[C@]1(c3ccc(-c4ccc(-c5nccs5)cn4)cc3)NC(=O)NC1=O)C2` [Compound 9517], the Ki is 100 to 1000 nM.

In the case of `COc1ccc2c(c1)C(=O)N(CC1(c3ccc(Oc4ccccn4)cc3)NC(=O)NC1=O)C2` (centres unmarked) [Compound 9608], the inhibitory constant (Ki) lay within 10 to 100 nM.

Usually Ki stands for a dissociation constant, usually derived from enzyme kinetics or from competition with a known ligand.
